Consider 1 compound from paper PMC5316997, “Structure and dynamics of Type III periplasmic proteins VcFhuD and VcHutB reveal molecular basis of their distinctive ligand binding properties” (Scientific Reports, 2017).

What is called Kd is the constant that tells how readily two partners part at equilibrium. High values mean a looser complex, low ones a tighter complex.

This test deals with T1, VcHutB (Vibrio cholerae, UniProt A0A0H3AE70).
T1 construct: gene hutB
Briefly: biochemical.

With `C=CC1=C(C)C2=Cc3c(C=C)c(C)c4[n]3[Fe]([Cl])[n]3c(c(C)c(CCC(=O)O)c3=CC3=NC(=C4)C(C)=C3CCC(=O)O)=CC1=N2` [hemin], binding was characterised by a dissociation constant (Kd) of 200 µM.
